# Source: patent US8541200B2, “Cleavage of fusion proteins using Granzyme B protease” (Hoffmann-La Roche Inc., priority 2003, dated 2013)
# B1: FXa: purified bovine blood clotting factor Xa protease (protein)
# chain: ANSFLEEVKQGNLERECLEEACSLEEAREVFEDAEQTDEFWSKYKDGDQCEGHPCLNQGHCKDGIGDYTCTCAEGFEGKNCEFSTREICSLDNGGCDQFCREERSEVRCSCAHGYVLGDDSKSCVSTERFPCGKFTQGRSRRWAIHTSEDALDASELEHYDPADLSPTESSLDLLGLNRTEPSAGEDGSQVVRIVGGRDCAEGECPWQALLVNEENEGFCGGTILNEFYVLTAAHCLHQAKRFTVRVGDRNTEQEEGNEMAHEVEMTVKHSRFVKETYDFDIAVLRLKTPIRFRRNVAPACLPEKDWAEATLMTQKTGIVSGFGRTHEKGRLSSTLKMLEVPYVDRSTCKLSSSFTITPNMFCAGYDTQPEDACQGDSGGPHVTRFKDTYFVTGIVSWGEGCARKGKFGVYTKVSNFLKWIDKIMKARAGAAGSRGHSEAPATWTVPPPLPL
# Experiment: Colorimetric FXa activity assay with S2222
# Type: biochemical
# Conditions: 100 mM NaCl, 50 mM Tris-HCl pH 8.0
# Protocol: To determine whether the added FXa had been properly removed from the incubation mixture, both the GrB-H6 and the FXa activity was measured before and after removal of the added FXa using a colorimetric assay with the substrates S2222 (N-Benzoyl-L-isoleucyl-L-glutamyl-glycyl-L-arginine-p-nitroaniline, Chromogenix, Italy, cat. no. S2222) and Ac-IEPD-pNA (N-acetyl-L-isoleucyl-L-glutamyl-L-prolyl-L-aspartyl-p-nitroaniline, Calbiochem, La Jolla, USA, cat. no. 368067), where the absorbance was measured at 405 nm for approximately 3 minutes, and the ΔOD405/min was calculated. FXa activity was measured using the following mix: 500 μl buffer, 25 μl 3 mM S2222, and 5 μl FXa. GrB-H6 activity was measured using the following mix: 500 μl buffer, 2 μl 100 mM Ac-IEPD-pNA, and 5 μl GrB-H6.
# The buffer used was either 100 mM NaCl, 50 mM Tris-HCl pH 8.0 or 100 mM HEPES pH 7.4. An example using the 100 mM NaCl, 50 mM Tris-HCl pH 8.0 buffer is shown below in Table 3, where the top fraction from the SP Sepharose eluate after FXa removal was used: […]
molecule,measurement,setting,value
B1,"FXa activity, before FXa removal",,0.0139 ΔOD405/min
same,"FXa activity, after FXa removal",top fraction of SP Sepharose eluate,0.0001 ΔOD405/min
